# scFv variants of Ab-95 (light chain) against a SARS-CoV-2 spike peptide

Values reported by Engelhart et al. 2022, doi:10.1038/s41597-022-01779-4 (FLAb copy).

Target peptide (SARS-CoV-2 spike, HR2 region): PDVDLGDISGINAS

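Variants in AAYL52 differ from the parent at up to three CDR positions; double and triple changes were sampled at random. AlphaSeq pools MATa yeast showing the antibodies with MATalpha yeast showing the peptide. Binding brings cells together so that they mate, and sequencing counts the barcode pairs among the diploids. Each replicate has its own calibration line, from reference interactions of the BCL2 family. There are three technical replicates.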

Each scFv is VH, a 15-residue (Gly4Ser)3 linker, VL, as in the parent Ab-95, and differs from it in the CDRs of the light chain only.
VH: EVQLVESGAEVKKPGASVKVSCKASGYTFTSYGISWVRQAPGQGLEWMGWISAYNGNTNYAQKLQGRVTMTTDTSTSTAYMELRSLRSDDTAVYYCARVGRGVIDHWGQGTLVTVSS
VL: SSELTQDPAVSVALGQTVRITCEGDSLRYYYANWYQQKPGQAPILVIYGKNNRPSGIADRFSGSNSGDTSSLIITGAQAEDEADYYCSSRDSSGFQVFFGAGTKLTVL

Each variant's VL is given in full. Kd is apparent (estimated from mating counts) and averaged on the log scale over replicates with a signal. Smaller is tighter. An entry "nd" has no value in the source: the pair was not observed among the diploids in any replicate. This suggests poor binding but is not conclusive.

With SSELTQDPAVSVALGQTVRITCEGDGLRYYYANWYQQKPGQAPILVIYGKNNRPSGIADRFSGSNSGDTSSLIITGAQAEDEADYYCHSHDSSGFQVFFGAGTKLTVL the result was 360 nM (1 of 3 replicates; controls 0 of 9).
With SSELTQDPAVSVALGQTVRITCEGDSLRYYYANWYQQKPGQAPILVIYGKNNRPSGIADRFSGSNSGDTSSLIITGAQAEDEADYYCTSRMYSGFQVFFGAGTKLTVL the result was 220 nM (3 of 3 replicates; controls 2 of 9).
With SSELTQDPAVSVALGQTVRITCEGGSLRYYYANWYQQKPGQAPILVIYHKNNRPSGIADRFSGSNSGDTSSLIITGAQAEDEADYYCSSRDSSGFQVAFGAGTKLTVL the result was 21 µM (1 of 3 replicates; controls 3 of 9).
With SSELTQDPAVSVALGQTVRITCEGDSLRYYYAFWYQQKPGQAPILVIYGKNNRPSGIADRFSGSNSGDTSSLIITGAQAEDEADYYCSKRDSSGFQVFFGAGTKLTVL the result was 7.9 µM (2 of 3 replicates; controls 1 of 9).
With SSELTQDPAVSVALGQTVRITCEGDRLRYYYANWYQQKPGQAPILVIYGKNNRSSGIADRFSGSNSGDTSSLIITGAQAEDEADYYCSSRDSSGIQVFFGAGTKLTVL the result was nd (0 of 3 replicates; controls 3 of 9).
With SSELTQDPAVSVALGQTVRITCEGDSLRYHYANWYQQKPGQAPILVIYGKNNRPSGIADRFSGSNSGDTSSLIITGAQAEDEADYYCSSWYSSGFQVFFGAGTKLTVL the result was 20 nM (3 of 3 replicates; controls 5 of 9).
With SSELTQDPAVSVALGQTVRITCEGDFLREYYANWYQQKPGQAPILVIYGKNNRPSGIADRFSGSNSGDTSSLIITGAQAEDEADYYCSSRDSSGFQVFFGAGTKLTVL the result was nd (0 of 3 replicates; controls 1 of 9).

Continued, with the values leading:

20 µM (1 of 3 replicates; controls 1 of 9): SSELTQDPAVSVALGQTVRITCEGDSLRYYYAEWYQQKPGQAPILVIYGKNNRPCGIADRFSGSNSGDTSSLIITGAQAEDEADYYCSSMDSSGFQVFFGAGTKLTVL.
nd (0 of 3 replicates; controls 1 of 9): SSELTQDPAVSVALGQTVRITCPGDSLRYYYANWYQQKPGQAPILVIYGKNNRPSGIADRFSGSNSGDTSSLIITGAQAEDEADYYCSSRDSNGFQEFFGAGTKLTVL.
nd (0 of 3 replicates; controls 4 of 9): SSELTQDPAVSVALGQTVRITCEGDSLEYYYANWYQQKPGQAPILVIYWKNNRPSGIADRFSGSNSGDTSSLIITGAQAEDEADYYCSSRDSSGFQVFFGAGTKLTVL.
2.3 µM (3 of 3 replicates; controls 1 of 9): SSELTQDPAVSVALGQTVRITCEGDSLRYYYANWYQQKPGQAPILVIYGKNNRPHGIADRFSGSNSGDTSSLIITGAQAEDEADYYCSSRVSSGFQVRFGAGTKLTVL.
17 µM (3 of 3 replicates; controls 6 of 9): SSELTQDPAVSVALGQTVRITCEGDSLDYYYANWYQQKPGQAPILVIYHKNNRPSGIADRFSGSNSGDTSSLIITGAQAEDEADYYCSSRDSSYFQVFFGAGTKLTVL.
640 nM (1 of 3 replicates; controls 3 of 9): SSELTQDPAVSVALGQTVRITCEPDSLRYYYANWYQQKPGQAPILVIYGKNNRPSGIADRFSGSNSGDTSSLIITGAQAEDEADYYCSSRFWSGFQVFFGAGTKLTVL.
nd (0 of 3 replicates; controls 3 of 9): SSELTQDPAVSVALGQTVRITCAGDSLRYYYANWYQQKPGQAPILVIYGKNNPPSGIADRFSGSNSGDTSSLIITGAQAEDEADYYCSSRNSSGFQVFFGAGTKLTVL.
11 µM (1 of 3 replicates; controls 2 of 9): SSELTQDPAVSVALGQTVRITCEGDSLRYYYANWYQQKPGQAPILVIYVKNMRPSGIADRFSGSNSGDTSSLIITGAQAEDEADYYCSSFDSSGFQVFFGAGTKLTVL.

Extract of 2 entries:

| VL | apparent Kd | replicates with signal | empty controls |
|---|---|---|---|
| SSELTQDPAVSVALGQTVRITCEGDSLRYYYAFWYQQKPGQAPILVIYGKNNRPSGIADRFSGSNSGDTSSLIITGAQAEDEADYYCSKRDSSGFQVFFGAGTKLTVL | 7.9 µM | 2 of 3 | 1 of 9 |
| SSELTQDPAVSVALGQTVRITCAGDSLRYYYANWYQQKPGQAPILVIYGKNNPPSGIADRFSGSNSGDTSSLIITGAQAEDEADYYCSSRNSSGFQVFFGAGTKLTVL | nd | 0 of 3 | 3 of 9 |

Nonspecific signal, from three strains lacking the peptide, appeared in 28% of pairings of library AAYL52, centred on 8.2 µM (5% of these signals below 800 nM); values are not corrected for it. The control count says in how many pairings with the empty strains this scFv gave a signal.